According to PubChem BioAssay AID602162 (NMMLSC, 2011):
The entries are a selection whose mix differs from that of the whole data set. Activity calls are given as the source filed them.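 The calls were made as follows: active = fluorescence ratio to DMSO below 75%, the collection mean minus 3 SD; inconclusive = too few cells collected in the well; inactive = the rest.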

Amino acid sequences for entries named in this document (tags omitted). A change or cut given only in a name is not applied to a line headed by its entry.
UniProt Q9NP58: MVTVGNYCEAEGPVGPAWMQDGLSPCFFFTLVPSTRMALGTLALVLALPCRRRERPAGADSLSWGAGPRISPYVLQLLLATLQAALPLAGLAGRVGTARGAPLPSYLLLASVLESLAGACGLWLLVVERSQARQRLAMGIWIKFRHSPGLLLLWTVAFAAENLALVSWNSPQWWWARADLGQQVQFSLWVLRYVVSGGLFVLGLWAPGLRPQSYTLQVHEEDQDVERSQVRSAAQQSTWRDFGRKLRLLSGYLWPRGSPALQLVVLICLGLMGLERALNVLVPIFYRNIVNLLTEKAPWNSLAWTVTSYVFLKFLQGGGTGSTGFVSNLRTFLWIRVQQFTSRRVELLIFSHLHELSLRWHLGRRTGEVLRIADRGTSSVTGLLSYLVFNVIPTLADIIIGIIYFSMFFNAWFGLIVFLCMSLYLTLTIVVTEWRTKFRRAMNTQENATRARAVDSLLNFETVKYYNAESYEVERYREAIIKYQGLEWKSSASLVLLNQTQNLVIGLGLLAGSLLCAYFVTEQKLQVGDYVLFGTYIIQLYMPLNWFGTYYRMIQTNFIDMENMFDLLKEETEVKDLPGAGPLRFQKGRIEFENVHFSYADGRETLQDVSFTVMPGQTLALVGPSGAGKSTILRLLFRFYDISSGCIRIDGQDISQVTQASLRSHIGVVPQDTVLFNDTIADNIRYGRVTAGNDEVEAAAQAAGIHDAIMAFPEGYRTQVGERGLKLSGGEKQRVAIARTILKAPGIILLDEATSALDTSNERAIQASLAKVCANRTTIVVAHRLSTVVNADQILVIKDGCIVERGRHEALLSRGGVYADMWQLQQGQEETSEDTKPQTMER

Target: ATP-binding cassette sub-family B member 6 (Homo sapiens) (UniProt Q9NP58)
Assay: ABCB6 transporter inhibitors, primary screen, K562-ABCB6 cells, flow cytometry, MLPCN library (AID 602162);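 also: signal is porphyrin accumulated inside mitochondria; 100% equals median channel fluorescence of DMSO control wells; lower ratio means ABCB6 inhibition with less porphyrin fluorescence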
Conditions: K562-ABCB6 porphyrin accumulation, 1 h, at 10 µM, stronger effect = lower value

| SMILES | fluorescence ratio to DMSO |
| --- | --- |
| O=C(OC1CN2CCC1CC2)c1cccc([N+](=O)[O-])c1 (stereo unspecified) | inactive: 93% |
| CCC(C)N(CC(C)C)C(=S)SC(NC(C)=O)C(Cl)(Cl)Cl (stereo unspecified) | inactive: 98% |
| Cc1cc(=O)[nH]c(N[N+](=O)[O-])n1 | inactive: 96% |
| O=C(OC1CN2CCC1CC2)C12CC3CC(CC(C3)C1)C2 (stereo unspecified) | inactive: 85% |
| Cc1c2c(nc3ccccc13)SC(C(Cl)Cl)C2 (stereo unspecified) | inactive: 103% |
| COc1cc(I)ccc1[As](=O)(O)O | inactive: 97% |
| COc1ccc2nc(NP(=O)(c3ccccc3)c3ccccc3)sc2c1 | inactive: 101% |
| O=P1(N(CCCl)CCCl)OCCCN1CCCl (stereo unspecified) | inactive: 92% |
| O=P1(N(CCCl)CCCl)Nc2ccccc2N1 | inactive: 94% |
| COc1ccc(N/C(=N/P(=O)(N2CCOCC2)N2CCOCC2)N2CCOCC2)cc1 | inactive: 98% |
| O=[N+]([O-])c1cc(Oc2ccc([N+](=O)[O-])cc2C(F)(F)F)cc([N+](=O)[O-])c1 | inactive: 96% |
| O=[N+]([O-])c1ccc(-c2cc([N+](=O)[O-])c(O)c([N+](=O)[O-])c2)cc1 | inactive: 101% |
| COc1cc(C(=O)NCC2(N3CCOCC3)CCCCC2)ccc1OCC(C)C | inactive: 97% |
| C[As](=O)(O)c1cccc(C(=O)O)c1 | inactive: 99% |
| O=[As](O)(c1ccc(O)cc1)c1ccccc1O | inactive: 92% |
| Cc1ccc2nc3c(c(C)c2c1)CC(C(Cl)Cl)S3 (stereo unspecified) | inactive: 105% |
| Cc1ccc(OP(=O)(Nc2ccc([N+](=O)[O-])cn2)Oc2ccc(C)cc2)cc1 | inactive: 91% |
| [N-]=[N+]=NC1CCCCC1NC(=O)c1cc([N+](=O)[O-])cc([N+](=O)[O-])c1 (stereo unspecified) | inactive: 97% |
| COC(=O)C1(C)COP(=O)(N2CCCCCC2)OC1 (stereo unspecified) | inactive: 100% |
| CC(C)c1ccc(OP(=O)(Nc2ccccn2)Oc2ccccc2F)cc1 (stereo unspecified) | inactive: 98% |
| ClCCSc1nnc(-c2cccnc2)o1 | inactive: 101% |
| O=[N+]([O-])c1cc([N+](=O)[O-])c(-c2ccn[nH]2)s1 | inactive: 100% |
| CC(C)NC(=O)NP(=O)(Oc1ccccc1)Oc1ccccc1 | inactive: 104% |

| SMILES | fluorescence ratio to DMSO |
| --- | --- |
| O=C(OC1CN2CCC1CC2)c1cccc2[nH]cnc12 (stereo unspecified) | inactive: 98% |
| CCN(CC)C(=S)SC(NC=O)C(Cl)(Cl)Cl (stereo unspecified) | inactive: 97% |
| CCCC1OP(N)(=O)OCC1CC (stereo unspecified) | inactive: 99% |
| CC(=O)Nc1ccc([As](=O)(O)O)cc1 | inactive: 101% |
| O=C(O)c1ccccc1[As](=O)(O)O | inactive: 96% |
| O=P(Nc1nc2ccc(Cl)cc2s1)(c1ccccc1)c1ccccc1 | inactive: 103% |
| CN(C)P(=O)(N(C)C)n1c(Nc2ccccc2)nnc1-c1ccccc1 | inactive: 94% |
| CN(C(=O)Cc1ccc(Cl)c(Cl)c1)[C@H]1CCCC[C@@H]1N1CCCC1 | inactive: 93% |
| Cc1ccc(NP(=O)(Oc2ccccc2F)Oc2ccccc2F)nc1 | inactive: 96% |
| Cc1cc(SC(NC(=O)c2ccc(F)cc2)C(Cl)(Cl)Cl)ncn1 (stereo unspecified) | inactive: 94% |
| CCOP(=O)(Nc1ccccc1)OCC | inactive: 103% |
| CCN(N=Nc1nonc1N)c1nonc1N | inactive: 98% |
| Nc1cccc2ccc([As](=O)(O)O)cc12 | inactive: 102% |
| NC(=O)c1cc([N+](=O)[O-])cc([N+](=O)[O-])c1N | inactive: 93% |
| Cc1ccc(N/C(=N/P(=O)(N2CCOCC2)N2CCOCC2)N2CCOCC2)cc1 | inactive: 107% |
| CN(C(=O)Cc1ccc(Cl)c(Cl)c1)[C@H]1CCCC[C@H]1N1CCCC1 | inactive: 98% |
| Cc1ccc(OP(=O)(Nc2nccs2)Oc2ccc(C)cc2)cc1 | inactive: 90% |
| COc1ccccc1OP(=O)(Nc1ccc(C)cn1)Oc1ccccc1OC | inactive: 95% |
| CN1CCCC(OC(=O)C(c2ccccc2)c2ccccc2)C1 (stereo unspecified) | inactive: 101% |
| Clc1ccc(Cl)c(NC2=NCC(CBr)S2)c1 (stereo unspecified) | inactive: 102% |
| Nc1cc(N)c2nonc2c1[N+](=O)[O-] | inactive: 99% |
| CC(C)CC(=O)NC(Sc1ccc(Cl)cc1)C(Cl)(Cl)Cl (stereo unspecified) | inactive: 99% |
| O=C(NC(Sc1ccncn1)C(Cl)(Cl)Cl)c1ccccc1 (stereo unspecified) | inactive: 98% |

| SMILES | fluorescence ratio to DMSO |
| --- | --- |
| Oc1ccccc1CNc1ccccn1 | inactive: 98% |
| O=[N+]([O-])C1C(O)C(O)C([N+](=O)[O-])C(O)C1O (stereo unspecified) | inactive: 93% |
| COc1ccc(C2=NCC(CBr)S2)cc1 (stereo unspecified) | inactive: 102% |
| CC(=O)N1C2C3N(C(C)=O)C1C1N(C(C)=O)C(C(N1C(C)=O)N3C(C)=O)N2C(C)=O | inactive: 110% |
| O=[N+]([O-])c1cccc2n[nH]nc12 | inactive: 86% |
| O=[N+]([O-])c1cc([N+](=O)[O-])c(CCNc2ccccc2)c([N+](=O)[O-])c1 | inactive: 119% |
| CCc1nc2c(n1)c1c(non1O)c1c2no[n+]1[O-] | inactive: 108% |
| Cc1ccc(NP(=O)(Oc2ccccc2)Oc2ccccc2)nc1 | inactive: 95% |
| C[N+]1=C2C=CC=CC=C2SC12C([N+](=O)[O-])=CC([N+](=O)[O-])=C[C-]2[N+](=O)[O-] (stereo unspecified) | inactive: 97% |
| Nc1ccc([As](=O)(O)c2ccc(N)cc2)cc1 | inactive: 85% |
| CCN(/C(=N/P(=O)(N1CCOCC1)N1CCOCC1)N1CCOCC1)c1ccc(OC)cc1 | inactive: 101% |
| CN(C)C(=O)OCCc1n(C)cc[n+]1C | inactive: 102% |
| CC(C)c1nc(Nc2ccccc2)n(P(=O)(N(C)C)N(C)C)n1 | inactive: 99% |
| CC(C)=N/N=C(\N)N[N+](=O)[O-] | inactive: 97% |
| CC1CCN(C(=O)Oc2c(Cl)cc(Cl)c3cccnc23)CC1 | inactive: 108% |
| c1cc(-c2nn[nH]n2)ccc1-c1nn[nH]n1 | inactive: 95% |
| O=P1(N(CCCl)CCCl)OCCCS1 (stereo unspecified) | inactive: 94% |
| O=C(Nc1cc([As](=O)(O)O)ccc1O)c1ccccc1 | inactive: 98% |
| CC(C)(C)C(=O)NC(Sc1ccncn1)C(Cl)(Cl)Cl (stereo unspecified) | inactive: 100% |
| O=[N+]([O-])c1ncn(CCn2ncnc2[N+](=O)[O-])n1 | inactive: 98% |
| COC(=O)C1(C)COP(=O)(Nc2ccccc2)OC1 (stereo unspecified) | inactive: 97% |
| O=[N+]([O-])c1cccc(NC2=NCC(CBr)S2)c1 (stereo unspecified) | inactive: 92% |
| O=C(O)CNc1ccc([As](=O)(O)O)cc1 | inactive: 95% |

| SMILES | fluorescence ratio to DMSO |
| --- | --- |
| COc1ccc(N)c([N+](=O)[O-])c1[N+](=O)[O-] | inactive: 91% |
| Nc1ccc(CCCCOc2ccccc2)cc1 | inactive: 101% |
| CN(C)C1(CNC(=O)c2ccc(Cl)c(S(N)(=O)=O)c2)CCCCC1 | inactive: 100% |
| O=P(Nc1ccccn1)(c1ccc(Br)cc1)c1ccc(Br)cc1 | inactive: 94% |
| C[C@H]1OP(=O)(Oc2ccccc2)[C@H](O)[C@H](O)[C@H]1N=[N+]=[N-] (stereo partly specified) | inactive: 99% |
| O=P(Nc1nc2ccccc2s1)(c1ccccc1)c1ccccc1 | inactive: 95% |
| O=[N+]([O-])c1ncn(CCn2cnc([N+](=O)[O-])n2)n1 | inactive: 95% |
| CC(=O)NC(SC(=S)N(C)C)C(Cl)(Cl)Cl (stereo unspecified) | inactive: 102% |
| O=[N+]([O-])c1ccc(O)c(/C=N/Nc2ccc([N+](=O)[O-])cc2[N+](=O)[O-])c1 | inactive: 92% |
| O=[As](O)(c1ccccc1)c1ccc(O)cc1 | inactive: 96% |
| C(Cc1nn[nH]n1)Cc1nn[nH]n1 | inactive: 96% |
| Nc1ccc([As](=O)(O)c2ccc([N+](=O)[O-])cc2)cc1 | inactive: 102% |
| O=C(OC1CN2CCC1CC2)c1cccc(Cl)c1 (stereo unspecified) | inactive: 93% |
| O=P(Nc1nccs1)(c1ccccc1)c1ccccc1 | inactive: 106% |
| CC(C)C(=O)NC(Sc1ccccc1)C(Cl)(Cl)Cl (stereo unspecified) | inactive: 98% |
| c1nnnn1CCn1cnnn1 | inactive: 89% |
| CCOc1ccc(C2=NCC(CBr)S2)cc1 (stereo unspecified) | inactive: 92% |
| O=P1(Nc2nc3ccc(Cl)cc3s2)COc2ccccc2O1 (stereo unspecified) | inactive: 92% |
| CCc1cc(O)c([N+](=O)[O-])c(C)c1[N+](=O)[O-] | inactive: 99% |
| CC(C)(C)C(=O)NC(Sc1ccccc1)C(Cl)(Cl)Cl (stereo unspecified) | inactive: 102% |
| COC(=O)C1(C)COP(=O)(NCc2ccccc2)OC1 (stereo unspecified) | inactive: 94% |
| CC(=O)c1ccc(N2CC2c2ccncc2)cc1 (stereo unspecified) | inactive: 95% |
| N#C/C(=C\c1ccc(N(CCBr)CCBr)cc1)C(N)=O | inactive: 100% |

| SMILES | fluorescence ratio to DMSO |
| --- | --- |
| C[C@H]1OP(=O)(Oc2ccccc2)C[C@@H]2O[C@@H]21 (stereo partly specified) | inactive: 97% |
| C[C@@H]1C=CCP(=O)(Oc2ccccc2)O1 (stereo partly specified) | inactive: 100% |
| Cc1ccccc1CN(C)C(=O)COC(=O)C(O)(c1ccccc1)c1ccccc1 | inactive: 94% |
| CC(=O)Nc1ccc(Oc2c([N+](=O)[O-])cc([N+](=O)[O-])cc2[N+](=O)[O-])cc1 | inactive: 99% |
| CC(=O)Nc1ccc([As](=O)(O)O)c(O)c1 | inactive: 97% |
| O=C(NC1CCS(=O)(=O)C1)NP(=S)(Oc1ccccc1)Oc1ccccc1 (stereo unspecified) | inactive: 98% |
| CCNC(=S)/N=C(\N)N[N+](=O)[O-] | inactive: 96% |
| Cc1ccc(NP(=O)(Oc2cccc(C)c2)Oc2cccc(C)c2)nc1 | inactive: 90% |
| c1ccc(-c2nn[nH]n2)c(-c2nn[nH]n2)c1 | inactive: 103% |
| O=P1(N(CCCl)CCCl)OCCC2CCCCN21 (stereo unspecified) | inactive: 101% |
| Cc1ccc(OP(=O)(Nc2ccccn2)Oc2ccc(C)cc2)cc1 | inactive: 95% |
| CC(=O)NC(SC(=S)N(CC(C)C)CC(C)C)C(Cl)(Cl)Cl (stereo unspecified) | inactive: 97% |
| COC(=O)c1cc2c(s1)N=C(c1ccccc1)N(C)P2(=O)N1CCOCC1 (stereo unspecified) | inactive: 100% |
| CCC(=O)N1C2C3N(C(=O)CC)C1C1N(C(=O)CC)C(C(N1C(=O)CC)N3C(=O)CC)N2C(=O)CC | inactive: 101% |
| O=C(OC1CN2CCC1CC2)c1ccccc1 (stereo unspecified) | inactive: 99% |
| O=c1c2cc([N+](=O)[O-])ccc2[nH]c2c([N+](=O)[O-])cc([N+](=O)[O-])cc12 | inactive: 98% |
| CN(C)C(=O)Oc1noc2ccccc12 | inactive: 101% |
| CC(NC(=O)COC(=O)C(O)(c1ccccc1)c1ccccc1)c1ccccc1 (stereo unspecified) | inactive: 98% |
| Cc1ccccc1OP(=O)(Nc1ccccn1)Oc1ccccc1C | inactive: 96% |
